These results are taken from publication PMC7659976, “Benzobicyclo[3.2.1]octene Derivatives as a New Class of Cholinesterase Inhibitors” (Molecules, 2020).

The chains behind the UniProt entries cited, without tags or fusion partners. Residues count along the entry.
UniProt P06276, 29-602 limits assumed: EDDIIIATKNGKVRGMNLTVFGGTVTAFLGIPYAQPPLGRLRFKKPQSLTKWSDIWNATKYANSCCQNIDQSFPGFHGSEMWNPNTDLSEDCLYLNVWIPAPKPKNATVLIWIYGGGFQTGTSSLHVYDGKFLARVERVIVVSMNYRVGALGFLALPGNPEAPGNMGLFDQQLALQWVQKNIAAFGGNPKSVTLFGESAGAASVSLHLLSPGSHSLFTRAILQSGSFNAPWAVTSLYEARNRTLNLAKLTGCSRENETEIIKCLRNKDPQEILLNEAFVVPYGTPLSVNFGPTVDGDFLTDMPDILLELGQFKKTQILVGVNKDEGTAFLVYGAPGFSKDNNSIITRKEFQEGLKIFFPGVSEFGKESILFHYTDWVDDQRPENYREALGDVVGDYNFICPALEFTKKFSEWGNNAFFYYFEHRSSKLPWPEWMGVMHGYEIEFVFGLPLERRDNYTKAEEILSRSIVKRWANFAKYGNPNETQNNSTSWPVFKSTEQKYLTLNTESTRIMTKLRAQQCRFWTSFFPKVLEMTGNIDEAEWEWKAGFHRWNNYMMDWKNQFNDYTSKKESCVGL

In the assay the target is BChE derived from purified human plasma (Homo sapiens, UniProt P06276). The assay can be described thus: Reversible inhibition of human BChE (Ellman method). Particulars: read-out: Inhibition of BChE, IC50 ± SEM; Table 2, oximes and oxime ethers; 0.1 M phosphate buffer pH 7.4, 25 °C, ATCh substrate. It counts as biochemical. A general note: Ellman's reagent forms a yellow product with free thiols.

Bounds are passed on as bounds.

The IC50 is the concentration that gives 50% inhibition.

In the case of `O=C1CC2CC(/C1=C/C/C=N/O)c1ccccc12` (stereo not shown), the half-inhibitory concentration (IC50) was over 500 µM.

On to `O/N=C/c1cc2c(o1)CC1CC2c2ccccc21` (stereo not shown), for which the concentration for half-maximal inhibition (IC50) worked out at 25 µM.

Regarding `O/N=C/C(O)=C/C1C=CC2CC1c1ccccc12` (stereo not shown), the IC50 is 450 µM.

As to `O=C(/C=N/O)/C=C1\CCC2CC1c1ccccc12` (stereo not shown), the half-inhibitory concentration (IC50) amounted to 350 µM.
